Only a part is listed here, and it is no random draw. Calls of active or inactive are those of the source.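 How the source made its calls: active means inhibition above the mean of all tested compounds plus 3 SD, set per campaign (cut at about 14% in these data); inactive means the rest.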
target: Acyl-protein thioesterase 1 (Homo sapiens) (UniProt O75608); test: inhibition of human lysophospholipase 1 – biochemical, fluorescence polarization, FP-Rh probe ABPP, counter-screen for PME1 inhibitor project, primary screen (AID 2174); details: recombinant LYPLA1, FP-Rh probe fluorescence polarization; at 5.9 µM; stronger effect = higher value;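 further: inhibitors block serine hydrolase probe labeling of LYPLA1 so polarization falls; 0% = enzyme with DMSO and 100% = wells lacking LYPLA1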

By UniProt entry, the sequences of proteins in these tests, tags left out. Where a name states a change or a piece, a line headed by the entry shows the natural chain unless it says otherwise.
UniProt O75608: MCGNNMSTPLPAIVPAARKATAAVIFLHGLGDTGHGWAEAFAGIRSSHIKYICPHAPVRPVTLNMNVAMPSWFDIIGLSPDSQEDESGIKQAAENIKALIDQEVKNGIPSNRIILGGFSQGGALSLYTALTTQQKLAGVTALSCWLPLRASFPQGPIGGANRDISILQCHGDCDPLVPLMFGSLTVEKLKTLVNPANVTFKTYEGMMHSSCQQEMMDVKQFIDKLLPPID

Structure (SMILES)	inhibition
CCOP(=O)(NC(=NC(C)c1ccccc1)NC(C)c1ccccc1)OCC (stereo unspecified)	inactive: -2.04%
CCC1=CC2Cc3nc4ccc(Cl)cc4c(N)c3C(C1)C2 (stereo unspecified)	inactive: 0.67%
O=P1(Nc2ccccn2)COc2ccccc2OC1	inactive: -2.29%
CC1(CBr)Cn2c(nc3ccccc3c2=O)S1 (stereo unspecified)	inactive: 0.95%
O=[As](O)(c1ccccc1Br)c1ccccc1Br	inactive: 0.24%
CN(C(=O)Cc1ccc(Cl)c(Cl)c1)[C@@H]1CCCC[C@H]1N1CCCC1	inactive: 1.8%
CC(C)/C=N\N=C(\N)N[N+](=O)[O-]	inactive: 1.48%
COc1ccccc1CNC(=O)COC(=O)C(O)(c1ccccc1)c1ccccc1	inactive: -0.22%
O=C(/C=C/c1ccccc1)OC1CN2CCC1CC2 (stereo unspecified)	inactive: 1.47%
CN(C)C1(CNC(=O)c2ccc(S(C)(=O)=O)cc2)CCCCC1	inactive: -1.44%
Cc1ccc(C(=O)OC2CN3CCC2CC3)cc1 (stereo unspecified)	inactive: -1.54%
CC1CCC(C(C)C)C(OP(=O)(Nc2ccccn2)c2ccccc2)C1 (stereo unspecified)	inactive: 1.65%
Cc1nn(-c2ccccc2)c2c1P(=O)(N1CCOCC1)N(C)C(c1ccccc1)=N2 (stereo unspecified)	inactive: 1.32%
O=[As](O)(c1cccs1)c1cccs1	inactive: -1.1%
Cc1ccc(OCC(=O)OC2CN3CCC2CC3)cc1 (stereo unspecified)	inactive: -0.38%
NS(=O)(=O)c1cccc(NC(=O)COC(=O)C(O)(c2ccccc2)c2ccccc2)c1	inactive: -2.86%
O=P1(Nc2ccc(Br)cn2)COc2ccccc2OC1	inactive: -1.34%
Nc1cccc([As](=O)(O)c2ccccc2)c1	inactive: 1.14%
O=P1(Nc2ncccn2)COc2ccccc2OC1	inactive: -2.16%
C[C@H]1OP(=O)(Oc2ccccc2)[C@H](O)[C@H](O)[C@H]1N=[N+]=[N-] (stereo partly specified)	inactive: -1.81%
O=P(Nc1nc2ccccc2s1)(c1ccccc1)c1ccccc1	inactive: 1.39%
CN(C)C1(CNC(=O)c2ccc(Cl)c(S(N)(=O)=O)c2)CCCCC1	inactive: 3.48%
O=P(Nc1ccccn1)(c1ccc(Br)cc1)c1ccc(Br)cc1	inactive: -2.02%

Structure (SMILES)	inhibition
C(Cc1nn[nH]n1)Cc1nn[nH]n1	inactive: 0.93%
Nc1ccc([As](=O)(O)c2ccc([N+](=O)[O-])cc2)cc1	inactive: -0.8%
O=C(OC1CN2CCC1CC2)c1cccc(Cl)c1 (stereo unspecified)	inactive: -2.04%
O=[N+]([O-])c1ncn(CCn2cnc([N+](=O)[O-])n2)n1	inactive: 2.15%
CC(=O)NC(SC(=S)N(C)C)C(Cl)(Cl)Cl (stereo unspecified)	inactive: 1.47%
O=[N+]([O-])c1ccc(O)c(/C=N/Nc2ccc([N+](=O)[O-])cc2[N+](=O)[O-])c1	inactive: 1%
O=[As](O)(c1ccccc1)c1ccc(O)cc1	inactive: -4.85%
c1nnnn1CCn1cnnn1	inactive: -1.72%
O=P(Nc1nccs1)(c1ccccc1)c1ccccc1	inactive: 1.81%
CC(C)C(=O)NC(Sc1ccccc1)C(Cl)(Cl)Cl (stereo unspecified)	inactive: 0.21%
CC(C)(C)C(=O)NC(Sc1ccccc1)C(Cl)(Cl)Cl (stereo unspecified)	inactive: 5.76%
CCOc1ccc(C2=NCC(CBr)S2)cc1 (stereo unspecified)	inactive: -0.05%
O=P1(Nc2nc3ccc(Cl)cc3s2)COc2ccccc2O1 (stereo unspecified)	inactive: -0.76%
CC(=O)Nc1ccc(Oc2c([N+](=O)[O-])cc([N+](=O)[O-])cc2[N+](=O)[O-])cc1	inactive: 2.89%
CC(=O)Nc1ccc([As](=O)(O)O)c(O)c1	inactive: 1.14%
CC(=O)c1ccc(N2CC2c2ccncc2)cc1 (stereo unspecified)	inactive: 0.98%
C[C@H]1OP(=O)(Oc2ccccc2)C[C@@H]2O[C@@H]21 (stereo partly specified)	inactive: -1.51%
C[C@@H]1C=CCP(=O)(Oc2ccccc2)O1 (stereo partly specified)	inactive: 0.86%
Cc1ccccc1CN(C)C(=O)COC(=O)C(O)(c1ccccc1)c1ccccc1	inactive: 1.4%
O=C(NC1CCS(=O)(=O)C1)NP(=S)(Oc1ccccc1)Oc1ccccc1 (stereo unspecified)	inactive: -0.69%
CCNC(=S)/N=C(\N)N[N+](=O)[O-]	inactive: -3.85%
CCOC(=O)NC(Sc1ccccc1)C(Cl)(Cl)Cl (stereo unspecified)	inactive: 3.62%
Cc1ccc(NP(=O)(Oc2cccc(C)c2)Oc2cccc(C)c2)nc1	inactive: -0.66%

Structure (SMILES)	inhibition
c1ccc(-c2nn[nH]n2)c(-c2nn[nH]n2)c1	inactive: -2.84%
CN(C)C(=O)Oc1noc2ccccc12	inactive: -4.29%
Cc1ccccc1OP(=O)(Nc1ccccn1)Oc1ccccc1C	inactive: -0.74%
Cc1ccc(OP(=O)(Nc2ccccn2)Oc2ccc(C)cc2)cc1	inactive: 1.75%
CC(=O)NC(SC(=S)N(CC(C)C)CC(C)C)C(Cl)(Cl)Cl (stereo unspecified)	inactive: 2.93%
COC(=O)c1cc2c(s1)N=C(c1ccccc1)N(C)P2(=O)N1CCOCC1 (stereo unspecified)	inactive: 1.12%
CCC(=O)N1C2C3N(C(=O)CC)C1C1N(C(=O)CC)C(C(N1C(=O)CC)N3C(=O)CC)N2C(=O)CC	inactive: -3.38%
O=C(OC1CN2CCC1CC2)c1ccccc1 (stereo unspecified)	inactive: -2.01%
CN(C(=O)Cc1ccc(Cl)c(Cl)c1)[C@H]1CCCC[C@@H]1N1CCCC1	inactive: -3.93%
Cc1ccc(NP(=O)(Oc2ccccc2F)Oc2ccccc2F)nc1	inactive: -1.15%
Cc1cc(SC(NC(=O)c2ccc(F)cc2)C(Cl)(Cl)Cl)ncn1 (stereo unspecified)	inactive: -4.62%
CCOP(=O)(Nc1ccccc1)OCC	inactive: 0.31%
CC(=O)Nc1ccc([As](=O)(O)O)cc1	inactive: 4.82%
O=C(O)c1ccccc1[As](=O)(O)O	inactive: 3.03%
O=P(Nc1nc2ccc(Cl)cc2s1)(c1ccccc1)c1ccccc1	inactive: -1.7%
CCN(N=Nc1nonc1N)c1nonc1N	inactive: -2.26%
O=[N+]([O-])c1cc([N+](=O)[O-])c(CCN2CCOCC2)c([N+](=O)[O-])c1	inactive: 1.03%
Cc1ccc(OP(=O)(Nc2nccs2)Oc2ccc(C)cc2)cc1	inactive: -3.48%
COc1ccccc1OP(=O)(Nc1ccc(C)cn1)Oc1ccccc1OC	inactive: 2.05%
CN1CCCC(OC(=O)C(c2ccccc2)c2ccccc2)C1 (stereo unspecified)	inactive: -5.51%
Clc1ccc(Cl)c(NC2=NCC(CBr)S2)c1 (stereo unspecified)	inactive: -4.16%
NC(=O)c1cc([N+](=O)[O-])cc([N+](=O)[O-])c1N	inactive: -1.04%
Cc1ccc(N/C(=N/P(=O)(N2CCOCC2)N2CCOCC2)N2CCOCC2)cc1	inactive: 0.16%

Structure (SMILES)	inhibition
CN(C(=O)Cc1ccc(Cl)c(Cl)c1)[C@H]1CCCC[C@H]1N1CCCC1	inactive: 0.21%
Nc1cc(N)c2nonc2c1[N+](=O)[O-]	inactive: 1.51%
CC(C)CC(=O)NC(Sc1ccc(Cl)cc1)C(Cl)(Cl)Cl (stereo unspecified)	inactive: -3.71%
O=C(NC(Sc1ccncn1)C(Cl)(Cl)Cl)c1ccccc1 (stereo unspecified)	inactive: 1.13%
Cc1c2non([O-])c-2c(C)[n+](=O)[n+]1[O-]	inactive: 0.78%
Oc1ccccc1CNc1ccccn1	inactive: 2.45%
CC(=O)N1C2C3N(C(C)=O)C1C1N(C(C)=O)C(C(N1C(C)=O)N3C(C)=O)N2C(C)=O	inactive: 8.07%
O=[N+]([O-])c1cccc2n[nH]nc12	inactive: 5.3%
O=[N+]([O-])c1cc([N+](=O)[O-])c(CCNc2ccccc2)c([N+](=O)[O-])c1	inactive: 0.49%
CCc1nc2c(n1)c1c(non1O)c1c2no[n+]1[O-]	inactive: 1.31%
Cc1ccc(NP(=O)(Oc2ccccc2)Oc2ccccc2)nc1	inactive: 0.02%
COc1ccc(C2=NCC(CBr)S2)cc1 (stereo unspecified)	inactive: 1.83%
CN(C)C(=O)OCCc1n(C)cc[n+]1C	inactive: -4.18%
CC(C)=N/N=C(\N)N[N+](=O)[O-]	inactive: 0.29%
CC1CCN(C(=O)Oc2c(Cl)cc(Cl)c3cccnc23)CC1	inactive: -0.33%
C[N+]1=C2C=CC=CC=C2SC12C([N+](=O)[O-])=CC([N+](=O)[O-])=C[C-]2[N+](=O)[O-] (stereo unspecified)	inactive: -4.39%
Nc1ccc([As](=O)(O)c2ccc(N)cc2)cc1	inactive: 3.08%
CCN(/C(=N/P(=O)(N1CCOCC1)N1CCOCC1)N1CCOCC1)c1ccc(OC)cc1	inactive: 0.68%
O=C(Nc1cc([As](=O)(O)O)ccc1O)c1ccccc1	inactive: -1.25%
O=[N+]([O-])c1cccc(NC2=NCC(CBr)S2)c1 (stereo unspecified)	inactive: -1.1%
CC(C)(C)C(=O)NC(Sc1ccncn1)C(Cl)(Cl)Cl (stereo unspecified)	inactive: -0.81%
O=[N+]([O-])c1ncn(CCn2ncnc2[N+](=O)[O-])n1	inactive: -6.53%

— PubChem BioAssay AID2174 (The Scripps Research Institute Molecular Screening Center, 2009)
